Assay results from patent US20090099157A1, “TETRAHYDRO-PYRAZOLO-PYRIDINE THIOETHER MODULATORS OF CATHEPSIN S” (priority 2007, published 2009).

Protein sequences, listed by entry. Tags and fused reporters are not part of them. Residues count along the entry.
UniProt P25774, 115-331: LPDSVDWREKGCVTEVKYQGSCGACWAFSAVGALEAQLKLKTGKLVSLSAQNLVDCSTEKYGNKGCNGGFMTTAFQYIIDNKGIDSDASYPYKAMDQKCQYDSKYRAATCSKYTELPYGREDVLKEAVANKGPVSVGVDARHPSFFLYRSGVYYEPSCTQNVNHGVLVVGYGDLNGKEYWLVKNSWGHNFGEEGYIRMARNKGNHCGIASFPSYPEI

biological target: Recombinant human cathepsin S (CatS) (Homo sapiens, UniProt P25774); test: biochemical

Row | Structure (SMILES) | IC50 [nM]
1 | CN(C)c1ccc2c(n1)n(C1CCN(CC(O)Cn3nc(-c4ccc(C(F)(F)F)c(SCC(=O)N5CC[C@@H](O)C5)c4)c4c3CCN(S(C)(=O)=O)C4)CC1)c(=O)n2C (stereo partly drawn) [Example 893, 5-(Dimethylamino)-3-[1-(2-hydroxy-3-{3-[3-({2-[(3R)-3-hydroxypyrrolidin-1-yl]-2-oxoethyl}sulfanyl)-4-(trifluoromethyl)phenyl]-5-(methylsulfonyl)-4,5,6,7-tetrahydro-1H-pyrazolo[4,3-c]pyridin-1-yl}propyl)piperidin-4-yl]-1-methyl-1,3-dihydro-2H-imidazo[4,5-b]pyridin-2-one] | 10
2 | CS(=O)(=O)N1CCc2c(c(-c3ccc(C(F)(F)F)c(SCC(=O)N4CCCC(F)C4)c3)nn2CCCN2CCC(N3CCCC3=O)CC2)C1 (stereo not shown) [Example 82, 1-{1-[3-(3-{3-[2-(3-Fluoro-piperidin-1-yl)-2-oxo-ethylsulfanyl]-4-trifluoromethyl-phenyl}-5-methanesulfonyl-4,5,6,7-tetrahydro-pyrazolo[4,3-c]pyridin-1-yl)-propyl]-piperidin-4-yl}-pyrrolidin-2-one] | 200
3 | CS(=O)(=O)N1CCc2c(c(-c3ccc(C(F)(F)F)c(SCC(=O)N4CCC(C(N)=O)CC4)c3)nn2CCCN2CCC(N3CCCC3=O)CC2)C1 [Example 91, 1-{2-[5-(5-Methanesulfonyl-1-{3-[4-(2-oxo-pyrrolidin-1-yl)-piperidin-1-yl]-propyl}-4,5,6,7-tetrahydro-1H-pyrazolo[4,3-c]pyridin-3-yl)-2-trifluoromethyl-phenylsulfanyl]-acetyl}-piperidine-4-carboxylic acid amide] | 150
4 | OC(CN1CCC(c2ccccn2)CC1)Cn1nc(-c2ccc(C(F)(F)F)c(SCCN3CCC(F)(F)C3)c2)c2c1CCNC2 (stereo not shown) [Example 418, 1-{3-[3-{[2-(3,3-Difluoropyrrolidin-1-yl)ethyl]sulfanyl}-4-(trifluoromethyl)phenyl]-4,5,6,7-tetrahydro-1H-pyrazolo[4,3-c]pyridin-1-yl}-3-(4-pyridin-2-ylpiperidin-1-yl)propan-2-ol] | 120
5 | CC1CCN(CC(O)Cn2nc(-c3ccc(C(F)(F)F)c(SCCN4CCOCC4)c3)c3c2CCN(S(C)(=O)=O)C3)CC1 (stereo not shown) [Example 175, 1-(4-Methylpiperidin-1-yl)-3-[5-(methylsulfonyl)-3-{3-[(2-morpholin-4-ylethyl)sulfanyl]-4-(trifluoromethyl)phenyl}-4,5,6,7-tetrahydro-1H-pyrazolo[4,3-c]pyridin-1-yl]propan-2-ol] | 200
6 | CS(=O)(=O)N1CCc2c(c(-c3ccc(C(F)(F)F)c(SCC(=O)N4CCOCC4)c3)nn2CC(O)CN2CCC(N3CCOCC3)CC2)C1 (stereo not shown) [Example 260, 1-[5-(Methylsulfonyl)-3-{3-[(2-morpholin-4-yl-2-oxoethyl)sulfanyl]-4-(trifluoromethyl)phenyl}-4,5,6,7-tetrahydro-1H-pyrazolo[4,3-c]pyridin-1-yl]-3-(4-morpholin-4-ylpiperidin-1-yl)propan-2-ol] | 70
7 | CS(=O)(=O)N1CCc2c(c(-c3ccc(C(F)(F)F)c(SCCN4CCOCC4)c3)nn2CC(O)CN2CCc3[nH]cnc3C2)C1 (stereo not shown) [Example 528, 1-[5-(Methylsulfonyl)-3-{3-[(2-morpholin-4-ylethyl)sulfanyl]-4-(trifluoromethyl)phenyl}-4,5,6,7-tetrahydro-1H-pyrazolo[4,3-c]pyridin-1-yl]-3-(1,4,6,7-tetrahydro-5H-imidazo[4,5-c]pyridin-5-yl)propan-2-ol] | 1540
8 | CS(=O)(=O)N1CCc2c(c(-c3ccc(C(F)(F)F)c(SCCN4CCC(F)(F)C4)c3)nn2CC(O)CN2CCC(C(N)=O)CC2)C1 (stereo not shown) [Example 625, 1-(3-{3-[3-{[2-(3,3-Difluoropyrrolidin-1-yl)ethyl]sulfanyl}-4-(trifluoromethyl)phenyl]-5-(methylsulfonyl)-4,5,6,7-tetrahydro-1H-pyrazolo[4,3-c]pyridin-1-yl}-2-hydroxypropyl)piperidine-4-carboxamide] | 90
9 | CS(=O)(=O)N1CCc2c(c(-c3ccc(C(F)(F)F)c(SCCN4CCN(CCc5ccccc5)CC4)c3)nn2CCCN2CCC(N3CCCC3=O)CC2)C1 [Example 49] | 1150
10 | CN(CCSc1cc(-c2nn(CCCN3CCC(N4CCCC4=O)CC3)c3c2CN(S(C)(=O)=O)CC3)ccc1C(F)(F)F)Cc1ccccc1 [Example 51, 1-{1-[3-(3-{3-[2-(Benzyl-methyl-amino)-ethylsulfanyl]-4-trifluoromethyl-phenyl}-5-methanesulfonyl-4,5,6,7-tetrahydro-pyrazolo[4,3-c]pyridin-1-yl)-propyl]-piperidin-4-yl}-pyrrolidin-2-one] | 2010
11 | CN(C)C(=O)N1CCc2c(c(-c3ccc(C(F)(F)F)c(SCCN4CCC(F)CC4)c3)nn2C[C@@H](O)CN2CCCCC2)C1 [Example 367, 3-[3-{[2-(4-Fluoropiperidin-1-yl)ethyl]sulfanyl}-4-(trifluoromethyl)phenyl]-1-[(2S)-2-hydroxy-3-piperidin-1-ylpropyl]-N,N-dimethyl-1,4,6,7-tetrahydro-5H-pyrazolo[4,3-c]pyridine-5-carboxamide] | 1050
12 | CCOC(=O)NC1CCN(CC(O)Cn2nc(-c3ccc(C(F)(F)F)c(SCCN4CCCCC4)c3)c3c2CCN(S(C)(=O)=O)C3)CC1 (stereo not shown) [Example 693, Ethyl (1-{2-hydroxy-3-[5-(methylsulfonyl)-3-{3-[(2-piperidin-1-ylethyl)sulfanyl]-4-(trifluoromethyl)phenyl}-4,5,6,7-tetrahydro-1H-pyrazolo[4,3-c]pyridin-1-yl]propyl}piperidin-4-yl)carbamate] | 65
13 | CS(=O)(=O)N1CCc2c(c(-c3ccc(C(F)(F)F)c(SCCN4CCC(O)C4)c3)nn2CCCN2CCC(N3CCCC3=O)CC2)C1 (stereo not shown) [Example 43, 1-{1-[3-(3-{3-[2-(3-Hydroxy-pyrrolidin-1-yl)-ethylsulfanyl]-4-trifluoromethyl-phenyl}-5-methanesulfonyl-4,5,6,7-tetrahydro-pyrazolo[4,3-c]pyridin-1-yl)-propyl]-piperidin-4-yl}-pyrrolidin-2-one] | 490
14 | CS(=O)(=O)N1CCc2c(c(-c3ccc(C(F)(F)F)c(SCC(=O)N4CC=C(c5ccccc5)CC4)c3)nn2CC(O)CN2CCC(N3CCCC3=O)CC2)C1 (stereo not shown) [Example 68, 1-{1-[2-Hydroxy-3-(5-methanesulfonyl-3-{3-[2-oxo-2-(4-phenyl-3,6-dihydro-2H-pyridin-1-yl)-ethylsulfanyl]-4-trifluoromethyl-phenyl}-4,5,6,7-tetrahydro-pyrazolo[4,3-c]pyridin-1-yl)-propyl]-piperidin-4-yl}-pyrrolidin-2-one] | 500
15 | CCOC(=O)NC1CCN(CCSc2cc(-c3nn(CCCN4CCC(N5CCCC5=O)CC4)c4c3CN(S(C)(=O)=O)CC4)ccc2C(F)(F)F)CC1 [Example 874, Ethyl {1-[2-({5-[5-(methylsulfonyl)-1-{3-[4-(2-oxopyrrolidin-1-yl)piperidin-1-yl]propyl}-4,5,6,7-tetrahydro-1H-pyrazolo[4,3-c]pyridin-3-yl]-2-(trifluoromethyl)phenyl}sulfanyl)ethyl]piperidin-4-yl}carbamate] | 630
16 | O=C(CO)NC1CCN(CC(O)Cn2nc(-c3ccc(C(F)(F)F)c(SCCN4CCC(F)(F)C4)c3)c3c2CCNC3)CC1 (stereo not shown) [Example 398, N-[1-(3-{3-[3-{[2-(3,3-Difluoropyrrolidin-1-yl)ethyl]sulfanyl}-4-(trifluoromethyl)phenyl]-4,5,6,7-tetrahydro-1H-pyrazolo[4,3-c]pyridin-1-yl}-2-hydroxypropyl)piperidin-4-yl]-2-hydroxyacetamide] | 1550
17 | CS(=O)(=O)N1CCc2c(c(-c3ccc(C(F)(F)F)c(SCCN4CCC(F)CC4)c3)nn2CC(O)CN2CCC(C(N)=O)CC2)C1 (stereo not shown) [Example 194, 1-(3-{3-[3-{[2-(4-Fluoropiperidin-1-yl)ethyl]sulfanyl}-4-(trifluoromethyl)phenyl]-5-(methylsulfonyl)-4,5,6,7-tetrahydro-1H-pyrazolo[4,3-c]pyridin-1-yl}-2-hydroxypropyl)piperidine-4-carboxamide] | 60
18 | CC(=O)N1CCC[C@H]1C(=O)N1CCc2c(c(-c3ccc(C(F)(F)F)c(SCCN4CCC(F)CC4)c3)nn2CC(O)CN2CCCCC2)C1 (stereo partly drawn) [Example 672, 1-{5-(1-Acetyl-L-prolyl)-3-[3-{[2-(4-fluoropiperidin-1-yl)ethyl]sulfanyl}-4-(trifluoromethyl)phenyl]-4,5,6,7-tetrahydro-1H-pyrazolo[4,3-c]pyridin-1-yl}-3-piperidin-1-ylpropan-2-ol] | 1340
19 | CS(=O)(=O)N1CCc2c(c(-c3ccc(C(F)(F)F)c(SCCN4CCCC(CO)C4)c3)nn2CC(O)CN2CCC(C(=O)N3CCOCC3)CC2)C1 (stereo not shown) [Example 863, 1-{3-[3-({2-[3-(Hydroxymethyl)piperidin-1-yl]ethyl}sulfanyl)-4-(trifluoromethyl)phenyl]-5-(methylsulfonyl)-4,5,6,7-tetrahydro-1H-pyrazolo[4,3-c]pyridin-1-yl}-3-[4-(morpholin-4-ylcarbonyl)piperidin-1-yl]propan-2-ol] | 370
20 | Cc1ccccc1N1CCN(CC(O)Cn2nc(-c3ccc(C(F)(F)F)c(SCCN4CCCCC4)c3)c3c2CCN(S(C)(=O)=O)C3)CC1 (stereo not shown) [Example 702, 1-[4-(2-Methylphenyl)piperazin-1-yl]-3-[5-(methylsulfonyl)-3-{3-[(2-piperidin-1-ylethyl)sulfanyl]-4-(trifluoromethyl)phenyl}-4,5,6,7-tetrahydro-1H-pyrazolo[4,3-c]pyridin-1-yl]propan-2-ol] | 20
21 | CSCC(=O)N1CCc2c(c(-c3ccc(C(F)(F)F)c(SCCN4CCOCC4)c3)nn2CC(O)CN2CCCCC2)C1 (stereo not shown) [Example 368, 1-(5-[(Methylsulfanyl)acetyl]-3-{3-[(2-morpholin-4-ylethyl)sulfanyl]-4-(trifluoromethyl)phenyl}-4,5,6,7-tetrahydro-1H-pyrazolo[4,3-c]pyridin-1-yl)-3-piperidin-1-ylpropan-2-ol] | 1340
22 | CS(=O)(=O)N1CCc2c(c(-c3ccc(C(F)(F)F)c(SCC(=O)N4CCOCC4)c3)nn2CCCN2CCOCC2)C1 [Example 254, 5-(Methylsulfonyl)-3-{3-[(2-morpholin-4-yl-2-oxoethyl)sulfanyl]-4-(trifluoromethyl)phenyl}-1-(3-morpholin-4-ylpropyl)-4,5,6,7-tetrahydro-1H-pyrazolo[4,3-c]pyridine] | 990
